Test results reported in PMC7444661 (Journal of medicinal chemistry, 2019).

Protein sequences, listed by entry. Tags and fused reporters are not part of them.
UniProt Q07343, whole entry S133D/S659A/S661A: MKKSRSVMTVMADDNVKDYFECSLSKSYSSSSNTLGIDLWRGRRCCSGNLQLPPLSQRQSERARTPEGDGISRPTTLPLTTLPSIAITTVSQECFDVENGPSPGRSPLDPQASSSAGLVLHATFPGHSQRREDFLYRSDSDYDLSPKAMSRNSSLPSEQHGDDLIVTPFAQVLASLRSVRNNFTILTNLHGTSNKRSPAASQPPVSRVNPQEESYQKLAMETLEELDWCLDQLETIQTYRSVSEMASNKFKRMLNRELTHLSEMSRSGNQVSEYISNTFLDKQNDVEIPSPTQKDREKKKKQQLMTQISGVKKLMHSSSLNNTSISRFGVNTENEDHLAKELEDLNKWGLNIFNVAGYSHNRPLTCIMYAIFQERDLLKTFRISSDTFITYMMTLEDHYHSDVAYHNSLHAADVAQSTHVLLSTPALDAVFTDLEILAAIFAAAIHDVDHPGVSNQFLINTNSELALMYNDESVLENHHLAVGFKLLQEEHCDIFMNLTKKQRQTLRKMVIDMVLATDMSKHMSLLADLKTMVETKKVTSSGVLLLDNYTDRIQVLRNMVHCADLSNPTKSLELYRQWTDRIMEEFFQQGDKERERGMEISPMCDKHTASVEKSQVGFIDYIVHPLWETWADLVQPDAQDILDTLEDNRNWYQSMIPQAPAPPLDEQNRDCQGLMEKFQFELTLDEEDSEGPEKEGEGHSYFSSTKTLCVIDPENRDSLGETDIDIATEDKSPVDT

Target: PDE4B1-S133D (Homo sapiens, UniProt Q07343, S133D/S659A/S661A)
Assay: PDE4 coupled enzyme assay of cAMP hydrolysis, PDE4B1-S133D
Format: biochemical
Settings: mean ± SD

Compound: CCOc1cc([C@@H](CS(C)(=O)=O)N2C(=O)c3cccc(NC(C)=O)c3C2=O)ccc1OC [30 (apremilast), apremilast, reference compound]
- Hill Slope PDE4B1-S133D dimer activated: 1.0 ± 0.05
